The record followed here is ChEMBL document CHEMBL1914415, “A sucrose-derived scaffold for multimerization of bioactive peptides” (Bioorg Med Chem, 2011).

Chains of the proteins cited; added tags and fusions are not shown.
UniProt P32245, whole entry: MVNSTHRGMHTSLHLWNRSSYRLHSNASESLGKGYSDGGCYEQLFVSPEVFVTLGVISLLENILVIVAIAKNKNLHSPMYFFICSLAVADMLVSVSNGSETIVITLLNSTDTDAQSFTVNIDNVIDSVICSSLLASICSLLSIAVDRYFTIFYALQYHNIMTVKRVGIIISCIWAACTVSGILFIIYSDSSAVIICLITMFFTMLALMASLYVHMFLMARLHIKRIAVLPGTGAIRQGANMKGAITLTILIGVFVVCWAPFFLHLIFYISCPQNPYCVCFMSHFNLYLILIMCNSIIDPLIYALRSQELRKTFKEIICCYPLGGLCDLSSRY

Usually Ki stands for a dissociation constant, usually derived from enzyme kinetics or from competition with a known ligand. The low end stands for a stronger hold on the target, the high end for a looser hold on the target.

For this assay, the target named is Melanocortin receptor 4 (Homo sapiens, UniProt P32245). Put plainly: Displacement of Eu-DTAP-NDP-alpha-MSH-NH2 from MC4 receptor expressed in human HEK293 cells after 1 hr by time resolved fluorescence method. The format is cell-based.

Compound `[N-]=[N+]=NCCCCCC(=O)N[C@@H](Cc1cnc[nH]1)C(=O)N[C@H](Cc1ccccc1)C(=O)N[C@@H](CCCNC(=N)N)C(=O)N[C@@H](Cc1c[nH]c2ccccc12)C(N)=O` displayed a Ki of 1.3 µM. `CCCCc1cn(CCCCCC(=O)N[C@@H](Cc2cnc[nH]2)C(=O)N[C@H](Cc2ccccc2)C(=O)N[C@@H](CCCNC(=N)N)C(=O)N[C@@H](Cc2c[nH]c3ccccc23)C(N)=O)nn1` had a Ki of 1.9 µM.
